Each molecule was assayed against human Factor XIa (Homo sapiens (Human), UniProt P03951) (assay: Factor XIa Assay). Settings: purified human Factor XIa 40 pM, Z-Gly-Pro-Arg-AFC 100 μM, pH 7.4; read-out: FXIa Ki.
Type: biochemical
Description: The effectiveness of a compound of the present invention as an inhibitor of Coagulation Factor XIa can be determined using a relevant purified serine protease, and an appropriate synthetic substrate. The rate of hydrolysis of the chromogenic or fluorogenic substrate by the relevant serine protease was measured both in the absence and presence of compounds of the present invention. Assays were conducted at room temperature or at 37° C. […] A decrease in the rate of fluorescence change in the presence of inhibitor is indicative of enzyme inhibition. Such methods are known to one skilled in the art. The results of this assay are expressed as the inhibitory constant, Ki.
Factor XIa determinations were made in 50 mM HEPES buffer at pH 7.4 containing 150 mM NaCl, 5 mM CaCl2, and 0.1% PEG 8000 (polyethylene glycol; JT Baker or Fisher Scientific). Determinations were made using purified human Factor XIa at a final concentration of 40 pM (Sekisui Diagnostics) and he synthetic substrate, Z-Gly-Pro-Arg-AFC, TFA salt (Sigma #C0980) at a concentration of 100 μM.
Times required to achieve equilibration between enzyme and inhibitor were determined in control experiments. Initial velocities of product formation in the absence (Vo) or presence of inhibitor (Vi) were measured. Assuming competitive inhibition, and that unity is negligible compared Km/[S], [I]/e, and [I]/e (where [S], [I], and e respectively represent the total concentrations, of substrate, inhibitor and enzyme), the equilibrium constant (Ki) for dissociation of the inhibitor from the enzyme can be obtained from the dependence of Vo/Vi on [I] shown in the following equation.

Protein sequences, listed by entry. Tags and fused reporters are not part of them. Residues count along the entry.
UniProt P03951, 19-387 partner: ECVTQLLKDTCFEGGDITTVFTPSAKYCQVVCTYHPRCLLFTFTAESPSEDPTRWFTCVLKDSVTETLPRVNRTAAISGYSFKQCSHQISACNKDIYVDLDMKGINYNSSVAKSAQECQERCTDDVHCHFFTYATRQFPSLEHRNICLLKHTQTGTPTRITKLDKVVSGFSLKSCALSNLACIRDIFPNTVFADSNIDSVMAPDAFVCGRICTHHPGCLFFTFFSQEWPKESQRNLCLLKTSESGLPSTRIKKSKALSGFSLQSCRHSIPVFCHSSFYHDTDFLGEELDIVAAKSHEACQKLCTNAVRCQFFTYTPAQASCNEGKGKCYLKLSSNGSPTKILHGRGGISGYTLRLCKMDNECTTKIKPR
UniProt P03951, 388-625: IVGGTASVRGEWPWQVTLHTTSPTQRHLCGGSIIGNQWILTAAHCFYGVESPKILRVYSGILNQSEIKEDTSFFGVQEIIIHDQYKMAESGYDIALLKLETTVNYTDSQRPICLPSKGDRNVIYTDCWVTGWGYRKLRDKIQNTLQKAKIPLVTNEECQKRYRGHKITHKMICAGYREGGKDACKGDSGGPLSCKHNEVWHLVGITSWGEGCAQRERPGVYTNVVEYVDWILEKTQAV

Structure (SMILES) | Ki [nM]
COC(=O)Nc1ccc(C(=O)N[C@@H](CC2CC2)C(=O)N2CCC3(C2)C(=O)Nc2ccc(Cl)cc23)cc1 (single isomer, unassigned) [Example 20A] | 8750
COC(=O)Nc1ccc(C(=O)N[C@@H](CC2CC2)C(=O)N2CCC3(C2)C(=O)Nc2ccc(Cl)cc23)cc1 (single isomer, unassigned) [Example 20B] | 539
COC(=O)Nc1ccc(C(=O)N[C@H](C[C@H](C)OC)C(=O)N2CCC[C@@]3(C2)OC(=O)Nc2ccc(Cl)c(F)c23)cc1 [Example 118D, methyl (4-(((2R,4S)-1-((R)-6-chloro-5-fluoro-2-oxo-1,2-dihydrospiro[benzo[d][1,3]oxazine-4,3′-piperidin]-1′-yl)-4-methoxy-1-oxopentan-2-yl)carbamoyl)phenyl)carbamate] | 95.4
COC(=O)Nc1ccc(C(=O)N[C@@H](C[C@H](C)OC)C(=O)N2CCC[C@@]3(C2)OC(=O)Nc2ccc(Cl)c(F)c23)cc1 [Example 118A, methyl (4-(((2S,4S)-1-((R)-6-chloro-5-fluoro-2-oxo-1,2-dihydrospiro[benzo[d][1,3]oxazine-4,3′-piperidin]-1′-yl)-4-methoxy-1-oxopentan-2-yl)carbamoyl)phenyl)carbamate] | 2.52
COC(=O)Nc1ccc(NC(=O)[C@@H](Cc2ccccc2)C(=O)N2CC[C@@]3(C2)OC(=O)Nc2ccc(Cl)cc23)cc1 [Example 120c, methyl (4-((R)-2-benzyl-3-((R)-6-chloro-2-oxo-1,2-dihydrospiro[benzo[d][1,3]oxazine-4,3′-pyrrolidin]-1′-yl)-3-oxopropanamido)phenyl)carbamate] | 1440

From US10093683B2, “Factor XIa inhibitors” (Merck Sharp & Dohme Corp., priority 2014, dated 2018)
